Measured values as given in paper PMC3713097 (Chemical research in toxicology, 2013).

What was measured:
[1] = target: T1, P450 2A6 (Homo sapiens, UniProt P11509)
T1 sequence (P11509 1-494): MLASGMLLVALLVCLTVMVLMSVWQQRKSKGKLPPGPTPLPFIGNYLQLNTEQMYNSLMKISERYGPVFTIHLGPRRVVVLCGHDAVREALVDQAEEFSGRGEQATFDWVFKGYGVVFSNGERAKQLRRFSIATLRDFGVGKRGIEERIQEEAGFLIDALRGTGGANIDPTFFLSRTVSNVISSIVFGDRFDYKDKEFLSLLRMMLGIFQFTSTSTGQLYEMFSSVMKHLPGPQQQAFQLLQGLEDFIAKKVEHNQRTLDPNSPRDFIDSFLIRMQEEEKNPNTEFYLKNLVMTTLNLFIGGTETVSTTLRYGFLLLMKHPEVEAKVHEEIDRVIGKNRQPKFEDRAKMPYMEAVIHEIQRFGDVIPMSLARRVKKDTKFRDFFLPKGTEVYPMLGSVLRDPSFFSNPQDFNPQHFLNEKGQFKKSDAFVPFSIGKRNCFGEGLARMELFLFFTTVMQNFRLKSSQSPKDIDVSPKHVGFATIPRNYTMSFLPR

[2] = target: T2, P450 1B1 (Homo sapiens, UniProt Q16678, L432V)
T2 sequence (Q16678 1-543 L432V): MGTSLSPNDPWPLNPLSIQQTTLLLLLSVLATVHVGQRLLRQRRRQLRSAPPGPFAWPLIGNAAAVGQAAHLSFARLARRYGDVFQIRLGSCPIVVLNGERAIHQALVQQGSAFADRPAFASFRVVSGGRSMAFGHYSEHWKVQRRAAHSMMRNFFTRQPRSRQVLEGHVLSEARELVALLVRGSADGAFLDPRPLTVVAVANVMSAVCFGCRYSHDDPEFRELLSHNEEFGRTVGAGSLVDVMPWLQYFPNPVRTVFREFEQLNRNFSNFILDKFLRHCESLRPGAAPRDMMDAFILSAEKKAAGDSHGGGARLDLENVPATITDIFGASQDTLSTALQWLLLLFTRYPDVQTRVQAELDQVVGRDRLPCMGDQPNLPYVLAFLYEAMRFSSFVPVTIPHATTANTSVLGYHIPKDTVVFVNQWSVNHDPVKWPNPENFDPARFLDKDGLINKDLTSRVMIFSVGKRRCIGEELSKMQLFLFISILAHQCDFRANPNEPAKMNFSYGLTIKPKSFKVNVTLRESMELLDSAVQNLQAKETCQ

[3] = target: T3, human P450 2A13 (Homo sapiens, UniProt Q16696)
T3 sequence (Q16696 31-494 limits assumed): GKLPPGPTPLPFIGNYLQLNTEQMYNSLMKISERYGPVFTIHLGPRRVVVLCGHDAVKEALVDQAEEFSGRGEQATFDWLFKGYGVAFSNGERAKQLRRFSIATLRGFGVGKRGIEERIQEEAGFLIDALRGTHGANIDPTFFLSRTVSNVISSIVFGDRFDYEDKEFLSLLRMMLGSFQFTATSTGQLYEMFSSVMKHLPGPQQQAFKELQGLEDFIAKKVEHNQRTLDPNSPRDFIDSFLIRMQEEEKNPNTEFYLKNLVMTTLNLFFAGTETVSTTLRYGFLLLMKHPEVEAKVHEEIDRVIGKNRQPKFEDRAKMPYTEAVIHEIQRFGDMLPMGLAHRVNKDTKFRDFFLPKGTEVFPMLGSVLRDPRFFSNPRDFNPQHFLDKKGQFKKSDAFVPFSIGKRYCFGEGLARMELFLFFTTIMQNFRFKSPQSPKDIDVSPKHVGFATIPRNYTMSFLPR

2-amino-3,5-dimethylimiidazo[4,5-f]quinoline [MeIQ]
activation of procarcinogens umu gene expression [1]: 350 ± 44 units/min/nmol P450
activation of procarcinogens umu gene expression [2]: 601 ± 59 units/min/nmol P450
activation of procarcinogens umu gene expression [3]: 260 ± 30 units/min/nmol P450
